The list shows a part of the results.

This note sets out measurements from PMC7723054.

Assay in all cases: FOREST: bead pull-down of RNA structure library v1, barcode microarray; U1A/LIN28A: 20 mM HEPES pH 7.5, 80 mM KCl, 20 mM NaCl, 10% glycerol, 2 mM DTT, 0.1 ug/uL BSA, 4 C; BG4/CIRBP/DHX36: 10 mM Tris-HCl pH 7.5, 100 mM KCl (or LiCl),; high values mean tight binding
One assay deals with T1, LIN28A (human?, UniProt Q9H9Z2 1-209).
T1 sequence: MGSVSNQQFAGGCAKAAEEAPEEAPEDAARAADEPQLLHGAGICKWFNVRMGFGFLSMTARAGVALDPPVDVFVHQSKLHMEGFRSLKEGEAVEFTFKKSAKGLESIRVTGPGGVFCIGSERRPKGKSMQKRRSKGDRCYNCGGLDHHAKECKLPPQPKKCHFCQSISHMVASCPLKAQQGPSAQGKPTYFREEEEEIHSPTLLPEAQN

The target of the next assay is T2, CIRBP (Homo sapiens, UniProt Q14011 1-172).
T2 sequence: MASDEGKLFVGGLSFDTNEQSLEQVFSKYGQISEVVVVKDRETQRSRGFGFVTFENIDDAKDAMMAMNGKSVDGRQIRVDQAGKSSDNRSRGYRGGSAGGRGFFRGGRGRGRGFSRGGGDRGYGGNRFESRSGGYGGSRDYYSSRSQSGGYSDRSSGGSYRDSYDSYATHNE

The target of the next assay is T3, DHX36 (Homo sapiens, UniProt Q9H2U1 1-1008).
T3 sequence: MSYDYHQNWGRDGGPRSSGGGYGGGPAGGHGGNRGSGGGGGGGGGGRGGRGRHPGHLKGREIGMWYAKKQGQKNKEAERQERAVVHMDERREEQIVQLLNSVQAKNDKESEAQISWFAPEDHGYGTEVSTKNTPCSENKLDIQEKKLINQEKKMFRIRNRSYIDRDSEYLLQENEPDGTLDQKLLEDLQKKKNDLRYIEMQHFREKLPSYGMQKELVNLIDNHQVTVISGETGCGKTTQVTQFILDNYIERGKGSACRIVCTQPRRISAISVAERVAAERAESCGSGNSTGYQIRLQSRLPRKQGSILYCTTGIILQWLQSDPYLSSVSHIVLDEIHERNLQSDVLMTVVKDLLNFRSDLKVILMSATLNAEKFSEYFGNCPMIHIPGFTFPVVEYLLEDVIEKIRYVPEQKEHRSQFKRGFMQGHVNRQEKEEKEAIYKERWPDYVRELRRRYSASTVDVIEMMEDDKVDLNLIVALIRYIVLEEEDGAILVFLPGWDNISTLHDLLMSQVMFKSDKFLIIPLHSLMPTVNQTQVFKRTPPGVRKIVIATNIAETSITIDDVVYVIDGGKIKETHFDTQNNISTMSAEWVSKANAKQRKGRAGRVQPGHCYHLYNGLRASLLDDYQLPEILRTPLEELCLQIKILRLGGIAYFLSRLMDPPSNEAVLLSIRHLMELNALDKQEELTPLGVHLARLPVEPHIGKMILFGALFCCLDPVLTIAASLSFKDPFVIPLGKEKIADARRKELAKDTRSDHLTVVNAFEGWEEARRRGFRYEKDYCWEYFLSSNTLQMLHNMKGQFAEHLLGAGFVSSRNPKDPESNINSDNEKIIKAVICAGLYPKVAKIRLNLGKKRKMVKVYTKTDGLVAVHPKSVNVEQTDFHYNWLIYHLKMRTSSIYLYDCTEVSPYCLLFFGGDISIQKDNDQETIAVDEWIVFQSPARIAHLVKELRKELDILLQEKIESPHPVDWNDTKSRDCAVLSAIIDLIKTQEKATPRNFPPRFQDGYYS

B1: hsa-mir-5587 (structured_RNA)
RNA: GGGACCCUCAACAUGGGGUAUCCCUGGAGGUGUACGAAGUUUCAGCGGACUCAGCCCUGUGCUGAGCCCGCUGAAGCUUCGUGCAC
On to B1, for which the binding signal with LIN28A was -0.73 z-score; with CIRBP it was 0.311 z-score; with DHX36 it was -0.681 z-score.

B2: hsa-mir-4305 (structured_RNA)
RNA: GGGAAAGUUAACAACAUGGCCUAUCUCGGGUGUACGAAGUUUCAGCCUGGGUUCUUAGAGGCCUAAUCCUCUACAAACUCAGUUUGCUGAAGCUUCGUGCAC
Turning to B2, the figures for the binding signal with LIN28A, in the assay with CIRBP and with DHX36 were -0.681 z-score, 0.0186 z-score and -0.879 z-score, respectively.

B3: hsa-mir-6722 (structured_RNA)
RNA: GGGAAAUCGUUGGCGAGUACGAAAACCCGGUGUACGAAGUUUCAGCAUGCAUGGCUGGUGGCGGCGUGCAGGCUGAAGCUUCGUGCAC
On to B3, for which the binding signal in the assay with LIN28A was -0.739 z-score; in the assay with CIRBP, 0.114 z-score; with DHX36, 0.116 z-score.

B4: hsa-mir-548ao (structured_RNA)
RNA: GGGACCGAAGGGUCCACACCGAUAUACUGGUGUACGAAGUUUCAGCUUUUGCAGUUGAAAGUAAUGGCAAAGGCUGAAGCUUCGUGCAC
As for B4, the binding signal with LIN28A is -0.696 z-score; with CIRBP, -1.36 z-score; with DHX36 it was -1.55 z-score.

B5: hsa-mir-548ac (structured_RNA)
RNA: GGGAGAAGGCCGCGCUAUCAUCACAAAGGGUGUACGAAGUUUCAGCUUUGCUAUUUUUUUUUAAUGGCAAAGCUGAAGCUUCGUGCAC
As to B5, the binding signal was -0.703 z-score with LIN28A, 0.453 z-score with CIRBP and -0.419 z-score with DHX36.

B6: hsa-mir-4323 (structured_RNA)
RNA: GGGAAUGCGUAGCCCGUCCCCAGUUAAAGGUGUACGAAGUUUCAGCGUGUCUGGAGACGCCAGGCAGCGCUGAAGCUUCGUGCAC
Regarding B6, the binding signal with LIN28A is -0.721 z-score; with CIRBP, -0.307 z-score; with DHX36, -0.0528 z-score.

B7: hsa-mir-588 (structured_RNA)
RNA: GGGACGCAGUACCGAGCUGAAAACACAGGGUGUACGAAGUUUCAGCGAACACUAUUCCAUUGUGUUCGCUGAAGCUUCGUGCAC
Turning to B7, the values for the binding signal with LIN28A, with CIRBP and with DHX36 were -0.726 z-score, 0.233 z-score and -1.44 z-score, respectively.

B8: hsa-mir-454 (structured_RNA)
RNA: GGGAAGAGACGUUCCAGUUCGCUCUCCCGGUGUACGAAGUUUCAGCCUCUGCUGUGUAAAUAGUUCUGAGUAGUGCUGAAGCUUCGUGCAC
As to B8, the binding signal was -0.75 z-score with LIN28A, -0.331 z-score with CIRBP and -0.568 z-score with DHX36.

B9: hsa-mir-6843 (structured_RNA)
RNA: GGGACCGCUGAAACAUGUCAGUCACUGGGGUGUACGAAGUUUCAGCCCCUGGGGAGCUGCUGCAGGCAGCAGGUGGGCGGGACGCCAGCAGGCUGUCUAGCUGUUCCCAUGAUGGGCUGAAGCUUCGUGCAC
B9: the figures for the binding signal in the assay with LIN28A, with CIRBP and with DHX36 were -0.685 z-score, -1.01 z-score and 1.88 z-score, respectively.

B10: hsa-mir-6090 (structured_RNA)
RNA: GGGAAAAGCGGUCAACGCACCGUAACGUGGUGUACGAAGUUUCAGCGCCCUGGGCCGGGCGAUGUCCGCUUGGGGGGCUGAAGCUUCGUGCAC
B10: the binding signal in the assay with LIN28A is -0.713 z-score; with CIRBP it was -0.602 z-score; in the assay with DHX36, -0.36 z-score.

B11: hsa-mir-4800 (structured_RNA)
RNA: GGGAGCUAGCGUUUAACCCCUAACUGGCGGUGUACGAAGUUUCAGCGAAGGAAGGCAAGGCUGUCUGUCCAUCGCUGAAGCUUCGUGCAC
In the case of B11, the binding signal was -0.723 z-score in the assay with LIN28A, 0.271 z-score with CIRBP and -0.0599 z-score with DHX36.

B12: hsa-mir-6837 (structured_RNA)
RNA: GGGAACUAUAUGGCCGCGCCUGUCAUUCGGUGUACGAAGUUUCAGCAAUGUCAGGGCCACCCCUGACCUUGCUGAAGCUUCGUGCAC
For B12, the binding signal with LIN28A was -0.73 z-score; with CIRBP, 0.833 z-score; in the assay with DHX36, 0.722 z-score.

B13: hsa-mir-5195 (structured_RNA)
RNA: GGGAUGGCCGGGAACACCUACUUUCAGUGGUGUACGAAGUUUCAGCGGAUGGGAGACCUGACCCAUCCGCUGAAGCUUCGUGCAC
For B13, the binding signal with LIN28A was -0.734 z-score; with CIRBP it was -0.779 z-score; with DHX36, 0.879 z-score.

B14: hsa-mir-1273c (structured_RNA)
RNA: GGGACGGCAGAGAAGGUAUGCCAUUAAUGGUGUACGAAGUUUCAGCUGUCUUUUUUUUUUUCUGAGACAGCUGAAGCUUCGUGCAC
Turning to B14, the values for the binding signal with LIN28A, in the assay with CIRBP and with DHX36 were -0.75 z-score, -0.579 z-score and 0.914 z-score, respectively.

B15: hsa-mir-551a (structured_RNA)
RNA: GGGAAAGGAGAAGUGCGUCAUGCUAUUGGGUGUACGAAGUUUCAGCGGGCCAGUCUGACCGUUUCUAGGCGGCUGAAGCUUCGUGCAC
For the molecule B15, the binding signal was -0.706 z-score with LIN28A, 0.433 z-score with CIRBP and 0.581 z-score with DHX36.

B16: hsa-mir-3646 (structured_RNA)
RNA: GGGAAGUAAGCGUAAUAAGCACCUAGUUGGUGUACGAAGUUUCAGCUUUUCAUGACAACCCUAUAUGGGAAAAUGUUGUGAAAAGCUGAAGCUUCGUGCAC
As for B16, the values for the binding signal with LIN28A, with CIRBP and with DHX36 were -0.698 z-score, 0.167 z-score and -0.5 z-score, respectively.

B17: hsa-mir-592 (structured_RNA)
RNA: GGGAACAGUAGGCGAGACAUCUUGAGACGGUGUACGAAGUUUCAGCAUGUGUUGUGAUGGCACAGCGUGCUGAAGCUUCGUGCAC
B17: the binding signal in the assay with LIN28A was -0.706 z-score; in the assay with CIRBP, -0.141 z-score; with DHX36, -0.757 z-score.

B18: hsa-mir-4669 (structured_RNA)
RNA: GGGAAGUGCUAUCACCAAGCCUCUACGCGGUGUACGAAGUUUCAGCUCCAGGCAUCUGUGUCUGGCUGAAGCUUCGUGCAC
For B18, the values for the binding signal with LIN28A, with CIRBP and in the assay with DHX36 were -0.726 z-score, 0.622 z-score and -0.368 z-score, respectively.

B19: hsa-mir-4716 (structured_RNA)
RNA: GGGACUGGCAGAGUUGUCGAUGCUGCAUGGUGUACGAAGUUUCAGCCCUUCUGUAUACAUGUAUACAGGAGGAAGGGCUGAAGCUUCGUGCAC
Take B19: the binding signal with LIN28A was -0.707 z-score; with CIRBP, -0.141 z-score; in the assay with DHX36, -0.967 z-score.

B20: hsa-mir-4471 (structured_RNA)
RNA: GGGAGCAAGCGCGAUCAUAUCGACCCAUGGUGUACGAAGUUUCAGCUCCAUGAAAAGAACCCAUGGGGCUGAAGCUUCGUGCAC
Take B20: the binding signal is -0.717 z-score with LIN28A, -0.845 z-score with CIRBP and -0.0541 z-score in the assay with DHX36.

B21: hsa-mir-6844 (structured_RNA)
RNA: GGGAACCCGGGAGGGUCUAAAUAAAGACGGUGUACGAAGUUUCAGCAGAAAUCAAGCUAUUUGCUAAAAGUUCUGCUGAAGCUUCGUGCAC
In the case of B21, the binding signal in the assay with LIN28A is -0.707 z-score; with CIRBP it was 1.16 z-score; in the assay with DHX36, -0.0949 z-score.

B22: hsa-mir-4440 (structured_RNA)
RNA: GGGAACGUAGGCUUGUGACUAAAACAACGGUGUACGAAGUUUCAGCUGGCUUGCACCGUGACUCCCUCUCACCAAGCAAGUGUCGCUGAAGCUUCGUGCAC
For the molecule B22, the binding signal is -0.722 z-score in the assay with LIN28A, 0.339 z-score with CIRBP and -0.795 z-score in the assay with DHX36.

B23: hsa-mir-1469 (structured_RNA)
RNA: GGGAGUUGUGAAUAUCGUCGGACCUGUGGGUGUACGAAGUUUCAGCCUCCGGGUUGGGGGCUGAAGCUUCGUGCAC
For B23, the binding signal in the assay with LIN28A is -0.685 z-score; with CIRBP, -2.01 z-score; with DHX36, -0.201 z-score.

B24: hsa-mir-4734 (structured_RNA)
RNA: GGGACCUUGAACGGACGAGCGACUUUCAGGUGUACGAAGUUUCAGCCACCUCCCGGCCCGGAGCUGGCUGAAGCUUCGUGCAC
Take B24: the binding signal with LIN28A is -0.701 z-score; with CIRBP, -0.256 z-score; in the assay with DHX36, -0.81 z-score.

B25: hsa-mir-6886 (structured_RNA)
RNA: GGGAUGGCAACGGAGGACACCCACUAUAGGUGUACGAAGUUUCAGCGGCUCCUGGCGCUGAUGCCGCUGAAGCUUCGUGCAC
Regarding B25, the binding signal with LIN28A is -0.734 z-score; with CIRBP, -1.18 z-score; with DHX36, -0.093 z-score.
